Measured values from patent publication US12285437B2 (The Research Foundation for The State University of new York, priority 2019, dated 2025).
Read-outs that look alike come from different tables or passages of the source.

What was measured:
[1] = 37° C.
[2] = test system: MDA-MB-231 human breast cancer cells
[3] = test system: SKOV3 human ovarian cancer cells; conditions: FIG. 9A, SKOV3, 2.5 hr, 10 μM

Mol. % of Dox Released ([1]; pH 6.5, 0 hr): 0 Mol. %
Mol. % of DMA 8 ([1]; pH 6.5, 1 hr): 56 Mol. %
Mol. % of DMI 7 formed ([1]; pH 6.5, 1 hr): 8 Mol. %
Mol. % of Decomposition Products ([1]; pH 6.5, 1 hr): 1 Mol. %
Mol. % of Dox Released ([1]; pH 6.5, 1 hr): 35 Mol. %
Mol. % of DMA 8 ([1]; pH 6.5, 3 hr): 20 Mol. %
Mol. % of DMI 7 formed ([1]; pH 6.5, 3 hr): 10 Mol. %
Mol. % of Decomposition Products ([1]; pH 6.5, 3 hr): 1 Mol. %
Mol. % of Dox Released ([1]; pH 6.5, 3 hr): 69 Mol. %
Mol. % of DMA 8 ([1]; pH 6.5, 4 hr): 16 Mol. %
Mol. % of DMI 7 formed ([1]; pH 6.5, 4 hr): 10 Mol. %
Mol. % of Decomposition Products ([1]; pH 6.5, 4 hr): 1 Mol. %
Mol. % of Dox Released ([1]; pH 6.5, 4 hr): 73 Mol. %
Mol. % of DMA 8 ([1]; pH 6.5, 5 hr): 13 Mol. %
Mol. % of DMI 7 formed ([1]; pH 6.5, 5 hr): 12 Mol. %
Mol. % of Decomposition Products ([1]; pH 6.5, 5 hr): 1 Mol. %
Mol. % of Dox Released ([1]; pH 6.5, 5 hr): 74 Mol. %
Mol. % of DMA 8 ([1]; pH 6.5, 6.5 hr): 6 Mol. %
Mol. % of DMI 7 formed ([1]; pH 6.5, 6.5 hr): 12 Mol. %
Mol. % of Decomposition Products ([1]; pH 6.5, 6.5 hr): 6 Mol. %
Mol. % of Dox Released ([1]; pH 6.5, 6.5 hr): 76 Mol. %
Mol. % of DMA 8 ([1]; pH 6.5, 8 hr): 2 Mol. %
Mol. % of DMI 7 formed ([1]; pH 6.5, 8 hr): 12 Mol. %
Mol. % of Decomposition Products ([1]; pH 6.5, 8 hr): 8 Mol. %
Mol. % of Dox Released ([1]; pH 6.5, 8 hr): 78 Mol. %
Mol. % of DMA 8 ([1]; pH 6.5, 9 hr): 2 Mol. %
Mol. % of DMI 7 formed ([1]; pH 6.5, 9 hr): 16 Mol. %
Mol. % of Decomposition Products ([1]; pH 6.5, 9 hr): 8 Mol. %
Mol. % of Dox Released ([1]; pH 6.5, 9 hr): 74 Mol. %
Mol. % of DMA 8 ([1]; pH 6.5, 12 hr): 1 Mol. %
Mol. % of DMI 7 formed ([1]; pH 6.5, 12 hr): 16 Mol. %
Mol. % of Decomposition Products ([1]; pH 6.5, 12 hr): 10 Mol. %
Mol. % of Dox Released ([1]; pH 6.5, 12 hr): 73 Mol. %
Mol. % of DMA 8 ([1]; pH 7.4, 0 hr): 73 Mol. %
Mol. % of DMI 7 formed ([1]; pH 7.4, 0 hr): 10 Mol. %
Mol. % of Decomposition Products ([1]; pH 7.4, 0 hr): 17 Mol. %
Mol. % of Dox Released ([1]; pH 7.4, 0 hr): 0 Mol. %
Mol. % of DMA 8 ([1]; pH 7.4, 2 hr): 53 Mol. %
Mol. % of DMI 7 formed ([1]; pH 7.4, 2 hr): 17 Mol. %
Mol. % of Decomposition Products ([1]; pH 7.4, 2 hr): 20 Mol. %
Mol. % of Dox Released ([1]; pH 7.4, 2 hr): 10 Mol. %
Mol. % of DMA 8 ([1]; pH 7.4, 5 hr): 23 Mol. %
Mol. % of DMI 7 formed ([1]; pH 7.4, 5 hr): 24 Mol. %
Mol. % of Decomposition Products ([1]; pH 7.4, 5 hr): 20 Mol. %
Mol. % of Dox Released ([1]; pH 7.4, 5 hr): 33 Mol. %
Mol. % of DMA 8 ([1]; pH 7.4, 9 hr): 19 Mol. %
Mol. % of DMI 7 formed ([1]; pH 7.4, 9 hr): 26 Mol. %
Mol. % of Decomposition Products ([1]; pH 7.4, 9 hr): 22 Mol. %
Mol. % of Dox Released ([1]; pH 7.4, 9 hr): 33 Mol. %
Mol. % of DMA 8 ([1]; pH 7.4, 12 hr): 18 Mol. %
Mol. % of DMI 7 formed ([1]; pH 7.4, 12 hr): 26 Mol. %
Mol. % of Decomposition Products ([1]; pH 7.4, 12 hr): 22 Mol. %
Mol. % of Dox Released ([1]; pH 7.4, 12 hr): 34 Mol. %
Mol. % of DMA 8 ([1]; pH 7.4, 16 hr): 14 Mol. %
Mol. % of DMI 7 formed ([1]; pH 7.4, 16 hr): 27 Mol. %
Mol. % of Decomposition Products ([1]; pH 7.4, 16 hr): 25 Mol. %
Mol. % of Dox Released ([1]; pH 7.4, 16 hr): 34 Mol. %
Mol. % of DMA 8 ([1]; pH 7.4, 20 hr): 12 Mol. %
Mol. % of DMI 7 formed ([1]; pH 7.4, 20 hr): 27 Mol. %
Mol. % of Decomposition Products ([1]; pH 7.4, 20 hr): 25 Mol. %
Mol. % of Dox Released ([1]; pH 7.4, 20 hr): 36 Mol. %
Mol. % of DMA 8 ([1]; pH 7.4, 24 hr): 12 Mol. %
Mol. % of DMI 7 formed ([1]; pH 7.4, 24 hr): 24 Mol. %
Mol. % of Decomposition Products ([1]; pH 7.4, 24 hr): 28 Mol. %
Mol. % of Dox Released ([1]; pH 7.4, 24 hr): 36 Mol. %
Mol. % of DMA 8 ([1]; pH 7.4, 48 hr): 8 Mol. %
Mol. % of DMI 7 formed ([1]; pH 7.4, 48 hr): 18 Mol. %
Mol. % of Decomposition Products ([1]; pH 7.4, 48 hr): 45 Mol. %
Mol. % of Dox Released ([1]; pH 7.4, 48 hr): 29 Mol. %
Mol. % of DMA 8 ([1]; pH 7.4, 81 hr): 1 Mol. %
Mol. % of DMI 7 formed ([1]; pH 7.4, 81 hr): 11 Mol. %
Mol. % of Decomposition Products ([1]; pH 7.4, 81 hr): 60 Mol. %
Mol. % of Dox Released ([1]; pH 7.4, 81 hr): 28 Mol. %
Substance: Doxorubicin Disubstituted Maleamic Acid Glutathione Conjugate [Dox-DMA-GSH 8]
Cell Viability Avg ([2]; FIG. 7B, MDA-MB231, 2 hr, 4 μM, pH 6.3-6.4): 53%
Cell Viability Avg ([2]; FIG. 7B, MDA-MB231, 2 hr, 4 μM, pH 7.6-7.7): 68%
Cell Viability Avg ([2]; FIG. 7B, MDA-MB231, 2 hr, 6 μM, pH 6.3-6.4): 24%
Cell Viability Avg ([2]; FIG. 7B, MDA-MB231, 2 hr, 6 μM, pH 7.6-7.7): 68%
Cell Viability Avg ([2]; FIG. 7B, MDA-MB231, 2 hr, 8 μM, pH 6.3-6.4): 13%
Cell Viability Avg ([2]; FIG. 7B, MDA-MB231, 2 hr, 8 μM, pH 7.6-7.7): 68%
Cell Viability Avg ([2]; FIG. 7F, MDA-MB231, 2.5 hr, 6 μM, pH 6.3-6.4): 27%
Cell Viability Avg ([2]; FIG. 7F, MDA-MB231, 2.5 hr, 6 μM, pH 6.5): 32%
Cell Viability Avg ([2]; FIG. 7F, MDA-MB231, 2.5 hr, 6 μM, pH 6.6-6.7): 53%
Cell Viability Avg ([2]; FIG. 7F, MDA-MB231, 2.5 hr, 6 μM, pH 6.9-7.0): 56%
Cell Viability Avg ([2]; FIG. 7F, MDA-MB231, 2.5 hr, 6 μM, pH 7.2-7.3): 66%
Cell Viability Avg ([2]; FIG. 7F, MDA-MB231, 2.5 hr, 6 μM, pH 7.5-7.7): 84%
less cytotoxic than the free drug (3 μM) ([2]; MDA-MB231, 2-3 h, 6-8 μM prodrug, pHe 7.5-7.6): 2-4 ×
Cell Viability Avg ([3]; pH 6.3-6.5): 43%
Cell Viability Avg ([3]; pH 7.5-7.6): 53%
